# Where a chain is given by its changes, count along the chain named. In names and notes the source's numbering stands.
# B1: SAV2435 V105W: SAV2435 variant aptamer, SEQ ID NO:10 (protein, listed as Escherichia coli)
# chain: MEYQLQQLASLTLVGIKETYENGRQAQQHIAGFWQRCYQEGVIADLQLKNNGDLAGILGLCIPELDGKMSYMIAVTGDNSADIAKYDVITLASSKYMVFEAQGAWPKAVQQKMEEVHHYIHQYQANTVKSAPFFELYQDGDTTSEKYITEIWMPVKGLEHHHHHH
# B2: LIN2189 E185L: LIN2189 variant aptamer, SEQ ID NO:30 (protein, listed as Escherichia coli)
# chain: MGSHHHHHHTEKKIDFKKEEKKFYAPKRKPERIFVPEMNFLMVDGKGDPDGEEYQKAVQSLYAIAYTIKMSKMGETRLDGYSDFVVPPLEGFWWSEGKFDLKDRDAWLWTSILRQPDFVTEEVLEWAKEVARKKKPDVDTSRVKLVRFEEGECVQMMHVGPFSEEVHTVAEMHQFMETEGLRNDTGAIRKHHLIYLSDPRKANPEKMKTILRLPVS
# B3: LIN2189 DUB: LIN2189 double mutant (E157A, E185L), SEQ ID NO:32, enzymatic GYRYZYME (protein, listed as Escherichia coli)
# chain: B2 chain with E165A
# B4: CTR107 TRIP: CTR107 triple mutant (E36R, H40Y, Y106W), SEQ ID NO:24 (protein, listed as Escherichia coli)
# chain: MDFECQFVCELKELAPVPALLIRTQTTMSELGSLFRAGYYDILQLLAGQGKSPSGPPFARYFGMSAGTFEVEFGFPVEGGVEGSGRVVTGLTPSGKAASSLYIGPWGEIEAVYDALMKWVDDNGFDLSGEAYEIYLDNPAETAPDQLRTRVSLMLHESLEHHHHHH
# B5: CTR107 QUAD: CTR107 quadruple mutant (E36R, H40Y, Y106W, E133Q), SEQ ID NO:26 (protein, listed as Escherichia coli)
# chain: B4 chain with E133Q
# Experiments:
# [1] = pH stability of Thiazole Orange fluorescence module
# [2] = Acridine Orange fluorescence assay; settings: 500 nM Acridine Orange
# TAMRA-DNA [3] = assay: UV fluorescence quenching of TAMRA-DNA
# TAMRA-DNA [4] = assay: TAMRA-labeled DNA fluorescence quenching assay; settings: for effect on 100 nM TAMRA-DNA fluorescence: 5 nM protein
# [5] = FAM fluorescence quenching assay; assay type: biochemical; settings: 1 μM FAM; saturating protein
# Source text: The fluorescence enhancing or quenching properties of Gyrl-like proteins can be used as a tool for identifying aptamers for target organic compounds. Building on Examples 1-8 we designed a protocol for identifying aptamers that bind to fluorescent dyes 5(6)-Carboxyfluorescein (FAM) and 5-Carboxytetramethylrhodamine (TAMRA) (FIG. 4). Both dyes are similar in structure and fluorescence in the green and red regions, respectively. The binding of FAM and TAMRA by Gyrl-like variant aptamers will result in enhancement or quenching of fluorescence. The invention method starts with screening our 3-selected wildtype Gyrl-like proteins to determine which can alter the fluorescence of FAM in solution (FIG. 11A).
# E. coli cells [6] = assay: Colony formation on ampicillin/IPTG agar plates; assay type: cell-based; settings: 24-hour incubation at 37° C.
# E. coli cells [7] = assay: In vivo drug-binding aptamer screening, growth in ampicillin; settings: up to 100 μg/ml ampicillin; 24 hrs; OD600
# CY5-oligo-BHQ1 = CY5-oligo-BHQ1 (CY5-DNA-BHQ1) fluorescence switch assay
# FAM-DNA-BHQ1 = FAM-DNA-BHQ1 fluorescence switch assay
# E. coli cells [8] = assay: Ex vivo ampicillin inactivation, bacterial growth; settings: 5 μg/ml or 500 μg/ml ampicillin; 80 μg/ml protein
# FAM-PNA = assay: FAM-labeled oligonucleotide quenching assay; assay type: biochemical
# Source text: FAM and other similar compounds are often used as labels for nucleic acids. Many biotechnology applications such as lateral flow devices and quantitative PCR use labeled oligonucleotides of this kind for sensitive signal detection. […] Accordingly, provided herein is a method to induce a fluorescence decrease from a fluorophore-labeled nucleic acid. Also provided herein are invention methods of binding and localizing proteins to the 5′ or 3′ end of nucleic acids. Internal labeled nucleic acids can also be used to localize Gyrl-like proteins to specific base positions. The invention methods also provide powerful tools using fluorophore-labeled nucleic acid that can be applied in biosensors, bioswitches, and molecular diagnostics.
# [9] = Colorimetric hydrolysis of pNPP to pNP; assay type: biochemical; settings: 10 μg/ml or 100 μg/ml protein; 3 hours
# Source text: In example 9, we engineered a novel enzymatic Gyrl-like aptamer LIN2189 DUB that is capable of modifying unrelated fluorescence dyes thereby quenching their fluorescence. Using the invention methods provided herein, those of skill in the art recognize that several other enzymatic Gyrl-like proteins can be selected for numerous chemical substrates. We examined whether LIN2189 DUB and other Gyrl-like variant aptamers function to catalyze other important chemical reactions used in biotechnology. Alkaline phosphatase is an important enzyme used in biotechnology for dephosphorylating chemical and biological substrates. In simple colorimetric reactions, alkaline phosphatase is able to dephosphorylate its colorless substrate p-Nitrophenyl Phosphate (pNPP) producing the yellow product p-Nitrophenol (pNP) (FIG. 15A). Because LIN2189 WT is categorized as a hydrolase like alkaline phosphatase, we assessed whether the promiscuous GYRYZYME LIN2189 DUB could hydrolyze pNPP to produce pNP. We mixed 100 μl of pNPP substrate in samples with no protein or with 10 μg/ml or 100 μg/ml LIN2189 DUB.
# TAMRA-DNA-BHQ1 = TAMRA-DNA-BHQ1 fluorescence switch assay
# [10] = Colorimetric conversion of Iodonitrotetrazolium to Formazan; settings: for color change of Iodonitrotetrazolium with NADH: 100 μM NADH, 500 μM Iodonitrotetrazolium, 5 minutes
# [11] = pre-activated with complementary RNA
molecule,measurement,setting,value
B1,decrease in Thiazole Orange fluorescence under acidic conditions,[1]; pH 3,2 fold
same,stability of Thiazole Orange fluorescence under basic conditions,[1]; pH 11,slightly more stable than acidic
same,Acridine Orange fluorescence increase,[2],doubled the fluorescence intensity
B2,quenching of UV fluorescence of 100 nM TAMRA,TAMRA-DNA [3]; 1 nM protein,ineffective
same,quenching of UV fluorescence of 100 nM TAMRA,TAMRA-DNA [3]; 10 nM protein,ineffective
same,quenching of UV fluorescence of 100 nM TAMRA,TAMRA-DNA [3]; 100 nM protein,shut off/quench
same,effect on 100 nM TAMRA-DNA fluorescence,TAMRA-DNA [4],no effects on TAMRA fluorescence
same,decrease in FAM fluorescence,[5],no changes in fluorescence quenching compared to LIN2189 WT
B3,quenching of UV fluorescence of 100 nM TAMRA,TAMRA-DNA [3]; 1 nM protein,approximately 70%
same,quenching of UV fluorescence of 100 nM TAMRA,TAMRA-DNA [3]; 10 nM protein,efficiently quenched
same,quenching of UV fluorescence of 100 nM TAMRA,TAMRA-DNA [3]; 100 nM protein,efficiently quenched
same,colonies on ampicillin/IPTG plates,E. coli cells [6],bacterial growth
same,reduction of 100 nM TAMRA fluorescence,"TAMRA-DNA [4]; 1 nM and 500 μM protein, up to 5 minutes",2 fold
same,effect on 100 nM TAMRA-DNA fluorescence,TAMRA-DNA [4],efficiently shut off
same,quenching of 100 nM TAMRA fluorescence,"TAMRA-DNA [4]; 5 nM to 1 μM protein, 1 minute incubation",completely shut off
same,quenching of TAMRA-DNA fluorescence,"TAMRA-DNA [4]; 1 μM TAMRA-DNA, red channel",22 fold
same,decrease in FAM fluorescence,[5],40 fold
same,ampicillin resistance of E. coli expressing the protein,E. coli cells [7],highest resistance
same,fluorescence reduction of activated CY5-DNA-BHQ1,CY5-oligo-BHQ1; pre-activated with CTR107 TRIP,2 fold
same,fluorescence reduction of activated CY5-DNA-BHQ1,CY5-oligo-BHQ1; [11],39 fold
same,fluorescence reduction of activated FAM-DNA-BHQ1,FAM-DNA-BHQ1; pre-activated with CTR107 TRIP,no effect
same,fluorescence reduction of activated FAM-DNA-BHQ1,FAM-DNA-BHQ1; [11],47 fold
same,bacterial growth in ampicillin pre-incubated with protein,E. coli cells [8],induce resistance
same,decrease in FAM-PNA fluorescence,FAM-PNA,31 fold
same,conversion of pNPP to pNP (colorimetric),[9],strong colorimetric changes
same,fluorescence decrease of activated TAMRA-DNA-BHQ1,TAMRA-DNA-BHQ1; pre-activated with CTR107 TRIP,no effect
same,fluorescence decrease of activated TAMRA-DNA-BHQ1,TAMRA-DNA-BHQ1; [11],13 fold
B4,"CY5-DNA-BHQ1 activation, weaker than complementary RNA",CY5-oligo-BHQ1,50%
same,activation of CY5-DNA-BHQ1 bioswitch,CY5-oligo-BHQ1; Example 12,10 fold
same,FAM-DNA-BHQ1 activation compared to complementary RNA,FAM-DNA-BHQ1,comparable
same,activation of FAM-DNA-BHQ1 bioswitch,FAM-DNA-BHQ1,56 fold
same,color change of Iodonitrotetrazolium with NADH,[10],much stronger red colorimetric change
same,color change of Iodonitrotetrazolium with cofactor,[10]; 2 hr,dark burgundy color change
same,TAMRA-DNA-BHQ1 activation compared to complementary RNA,TAMRA-DNA-BHQ1,comparable
same,activation of TAMRA-DNA-BHQ1 bioswitch,TAMRA-DNA-BHQ1,25 fold
B5,color change of Iodonitrotetrazolium with NADH,[10],faint red signal

# Reference: patent US12104201B2, “Engineered gyri-like mutein aptamers, and related methods” (CROSSLIFE TECHNOLOGIES INC., priority 2019, dated 2024)
